Measured values taken from article PMC5056442.

Biological target: BamE (E. coli) (UniProt P0A937)
Experiment: SEC + native MS; purified BamABCDE; SDS-PAGE, gel filtration (Superdex200 10/300 GL, TBS with 0.05% DDM, 21 °C) and non-covalent nanoESI-MS named together for the molar ratio

“BamA (from UniProt P0A940 21-810) (natural protein; other documents disagree on this pair)” showed a stoichiometry N of 1 molar ratio.
